Most compounds without a hit are left out; they make up all but 0.43% or so of the library.
HCMV UL50-53 inh = inhibitors of HCMV UL50-UL53 nuclear egress complex interaction. hit rate 0.15% among 190,000. HTRF UL50-UL53 interaction, normalized percent inhibition. inhibition, % (no concentration beside the values); in the data active means inhibition above about 27%, passing the limit was not always enough
GIV Gai3 FP = inhibitors of GIV GBA-motif binding to rat Galpha-i3. 210,000 tested, 0.42% active. percent of control (FP), % (concentration not given with the values). AID 1224905. Galpha-i3/FITC-GIV peptide fluorescence polarization, 90 min; active compounds read low; scaled: aluminum fluoride 0%, vehicle 100%;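 active = replicate mean at 85% of control or lower, very high polarization wells dropped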;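 note: wells of about 15 µL received 100 nL stock; the first replicate is given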
GIV-Gai FP conf = confirmation of inhibitors of GIV binding to rat Galpha-i3. hit rate 38% among 580. fluorescence polarization, mP at 100 µM. shares compounds with GIV Gai3 FP. FITC-GIV peptide binding to Galphai3, fluorescence polarization; active compounds read low;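 active means inhibition score of 15 or more, meaning 100 minus mean polarization as percent of control over three replicates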;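 further: lower mP means peptide displaced from Galphai3 so more inhibition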
GIV Gai AS conf = confirmation of inhibitors of GIV binding to human Galpha-i3; AlphaScreen counts at 100 µM; shares compounds with GIV Gai3 FP; AlphaScreen Galphai3-GIV binding, purified proteins, 90 min; active compounds read low; AID 1259351; hit rate 39% among 580;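 active means inhibition score at or above a set limit, where the score is 100 minus the three-replicate mean percent of control signal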
An asterisk follows results filed as active; . = no result.

Sequence of screens: GIV Gai AS conf | GIV Gai3 FP | HCMV UL50-53 inh | GIV-Gai FP conf
1	CCOc1cc(C(=O)N(CC(F)(F)F)C(C)C2CC2)ccc1OC (stereo not given)
 : . | . | 8 | .
2	Cc1cccc(NC(=O)c2ccco2)n1
 : . | 108 | -9 | .
3	Cc1cccc(NC(=O)C(F)(F)C(F)(F)C(F)(F)F)n1
 : 31955 | 65* | 4 | 77
4	CCSc1nnc2c(n1)OC(c1c(OC)ccc3ccccc13)Nc1ccccc1-2 (stereo not given)
 : 32956* | -4.5* | -38 | 62
5	CCSc1nnc2c(n1)OC(c1ccc(Cl)cc1)Nc1ccccc1-2 (stereo not given)
 : 28223 | 78* | -7 | 76
6	CCCSc1nnc2c(n1)OC(c1ccc(F)cc1)Nc1ccccc1-2 (stereo not given)
 : 31445 | 66* | -10 | 82
7	CCSc1nnc2c(n1)OC(c1ccc(C)cc1)Nc1ccccc1-2 (stereo not given)
 : . | 92 | 3 | .
8	CCCSc1nnc2c(n1)OC(c1c(OC)ccc3ccccc13)Nc1ccccc1-2 (stereo not given)
 : . | 112 | -31 | .
9	CCCSc1nnc2c(n1)OC(c1ccc(OCC(=O)O)cc1)Nc1ccccc1-2 (stereo not given)
 : . | 103 | . | .
10	Cc1nc(CC(=O)Nc2ccccc2)cs1
 : . | 103 | -13 | .
11	Cc1nc(N2CCCC2)ncc1S(=O)(=O)c1ccc(Cl)cc1
 : . | 102 | -12 | .
12	Cc1ccc(Cc2c(C)nc3nc(CN4CCC(C)CC4)[nH]n3c2=O)cc1
 : . | 108 | -3 | .
13	N#C/C(=C\C=C\c1ccco1)C(N)=S
 : 2145* | 78* | 51 | 50*
14	N#CC(C#N)=C(N)/C(C#N)=C/c1ccco1
 : . | 112 | -69 | .
15	O=C(CN1CCOc2ccccc21)NCc1ccccc1
 : . | 100 | 4 | .
16	CCN(/C=C/C(=O)c1ccccc1O)CC
 : . | . | -37 | .
17	Cc1ccc(C(=O)c2[nH]c(=O)c3ccccc3c2O)c(C)c1
 : 47319 | 81* | 60* | 61
18	CCOC(=O)c1[nH]c(=O)c2ccccc2c1O
 : . | 110 | -12 | .
19	Cc1ccc(NC(=O)CSc2nc(=O)n(Cc3ccncc3)c3c2CCC3)cc1Cl
 : . | 105 | . | .
20	O=C(O)c1ccc(CS(=O)(=O)c2ccccc2)o1
 : 2163* | 77* | . | 55

Compounds above that contain an aryl thioether with sulfur outside any ring, in the order listed:
Sequence of screens: GIV Gai AS conf | GIV Gai3 FP | HCMV UL50-53 inh | GIV-Gai FP conf
4	CCSc1nnc2c(n1)OC(c1c(OC)ccc3ccccc13)Nc1ccccc1-2 (stereo not given)
 : 32956* | -4.5* | -38 | 62
5	CCSc1nnc2c(n1)OC(c1ccc(Cl)cc1)Nc1ccccc1-2 (stereo not given)
 : 28223 | 78* | -7 | 76
6	CCCSc1nnc2c(n1)OC(c1ccc(F)cc1)Nc1ccccc1-2 (stereo not given)
 : 31445 | 66* | -10 | 82
7	CCSc1nnc2c(n1)OC(c1ccc(C)cc1)Nc1ccccc1-2 (stereo not given)
 : . | 92 | 3 | .
8	CCCSc1nnc2c(n1)OC(c1c(OC)ccc3ccccc13)Nc1ccccc1-2 (stereo not given)
 : . | 112 | -31 | .
9	CCCSc1nnc2c(n1)OC(c1ccc(OCC(=O)O)cc1)Nc1ccccc1-2 (stereo not given)
 : . | 103 | . | .
19	Cc1ccc(NC(=O)CSc2nc(=O)n(Cc3ccncc3)c3c2CCC3)cc1Cl
 : . | 105 | . | .

Continuation.
Sequence of screens: GIV Gai AS conf | GIV Gai3 FP | HCMV UL50-53 inh | GIV-Gai FP conf
21	NNC(=O)c1ccc(CS(=O)(=O)c2ccccc2)o1
 : . | . | 5 | .
22	CC(C)C(c1nnnn1Cc1ccccc1)N1CCN(c2ccccc2)CC1 (stereo not given)
 : . | 100 | 2 | .
23	COc1ccc(NC(=O)CSc2nnc3c4sc(N5CCCC5)nc4ncn23)cc1
 : . | 109 | . | .
24	O=C(CSc1nnc2c3sc(N4CCCC4)nc3ncn12)Nc1ccccc1
 : 31906 | 81* | . | 81
25	Cc1nc(C)c(-c2nc(-c3cc4c(C)nn(-c5ccccc5)c4s3)no2)s1
 : . | 128 | -10 | .
26	Cc1ccsc1-c1nc(-c2cc3c(C)nn(-c4ccccc4)c3s2)no1
 : 32151 | 41* | -14 | 85
27	COCCn1c(SCC(=O)NCc2ccccc2)nc2ccccc21
 : . | . | -9 | .
28	CN1C(=O)/C(=C/c2cn(CC(=O)N3CCCC3)c3ccccc23)C(=O)NC1=S
 : . | 95 | -5 | .
29	CCOc1cccc(N2C(=O)/C(=C/c3cn(CC(=O)N4CCOCC4)c4ccccc34)C(=O)NC2=S)c1
 : 45192 | 82* | -3 | 62
30	Cc1cc2c(=O)[nH]nc(N)c2c(=O)[nH]1
 : . | 105 | -22 | .
31	Nc1n[nH]c2cc(=O)[nH]c(O)c12
 : 7988* | 48* | 110* | 45*
32	COc1cc(-c2nc(C=Nc3ccc4ccccc4c3)c(O)o2)cc(OC)c1OC
 : . | 104 | . | .
33	COC(=O)c1ccc(N=Cc2nc(-c3cc(OC)c(OC)c(OC)c3)oc2O)cc1
 : 54563 | 95 | . | 58
34	CCC(O)c1ccc(-c2ccccc2F)cc1 (stereo not given)
 : . | 101 | -7 | .
35	CC(=O)Nc1ccc(NC(=O)c2ccco2)cc1
 : . | 94 | -1 | .
36	O=C(O)c1cc(NC(=O)c2ccc(NC(=O)c3ccco3)cc2)cc(C(=O)O)c1
 : 22001* | 79* | -34 | 64*
37	CC(O)Cc1nsc(NC(=O)c2ccccc2F)n1 (stereo not given)
 : . | 106 | -32 | .
38	O=c1c2cccnc2n(Cc2ccc(Cl)cc2)c(=O)n1Cc1ccc(F)cc1
 : . | 105 | -26 | .
39	NCc1cn[nH]c1-c1ccccc1
 : . | . | -6 | .
40	CC1(C)N2CC3([N+](=O)[O-])CN1CC([N+](=O)[O-])(C2)C3(C)C
 : 45009 | 92 | . | 64
41	CC1(C)C2([N+](=O)[O-])CN3CC1([N+](=O)[O-])CN(C2)C3c1ccc(O)cc1 (stereo not given)
 : . | 128 | . | .
42	O=c1oc2ccccc2cc1-c1nc(-c2ccc(Cl)cc2)no1
 : . | 106 | -5 | .
43	Cc1ccc(C)c(CN2C(=O)c3ccccc3S(=O)(=O)c3ccc(C(=O)OCC4CCCO4)cc32)c1 (stereo not given)
 : . | 106 | . | .
44	CCOC(=O)c1c(C)oc2c1c(O)c(N=O)c1ccccc12
 : 50417 | 42* | -53 | 48*
45	CCOC(=O)c1c(C)oc2c1c(C=NC(C)c1ccccc1)c(O)c1ccccc12 (stereo not given)
 : . | 103 | . | .
46	CN(C)/C=C/C=C/c1cc(=O)cc(/C=C/C=C/N(C)C)o1
 : 2403* | 5.8* | 67* | 25*
47	CC(C)(C)OC(=O)N1CCC(c2c(C(=O)N3CCN(C4CCCCC4)CC3)cnn2-c2cccc(Cl)c2)CC1
 : . | 96 | . | .
48	Cc1ccc(NC(=O)N2CCN(c3cc(=O)n4nc(-c5ccccc5C)sc4n3)CC2)c(Cl)c1
 : 28227 | 92 | 5 | 81
49	Cc1ccccc1-c1nn2c(=O)cc(N3CCN(C(=O)Nc4cccc(Cl)c4C)CC3)nc2s1
 : . | 100 | 28 | .
50	Cc1ccc(Nc2c(-c3ccc(C)o3)nc3nc(C)cc(C)n23)cc1
 : . | 103 | . | .
51	CCCOc1ccc(Cl)cc1C(=O)O
 : . | 100 | 3 | .
52	Cc1ccc(C)n1-c1cc(Cl)ccc1C(=O)O
 : 2339* | 60* | 80* | 59*
53	Cc1ccc(C)n1-c1ccccc1C(=O)O
 : 1962* | 5.7* | 30 | 11*
54	CC(=O)Nc1ccc(-n2c(C)ccc2C)c(C(=O)O)c1
 : . | . | 5 | .
55	COc1ccc(NC(=O)c2sc3nc(N4CCCC4)c4c(c3c2N)CCCC4)cc1
 : . | 108 | -21 | .
56	COc1ccc(CCNC(=O)CCCn2nc(C)c3sc4ccccc4c3c2=O)c(OC)c1
 : . | 104 | -14 | .
57	CCc1ccc(NC(=O)CCCN2C(=S)NC(C)(C)CC2C)cc1 (stereo not given)
 : . | 97 | . | .
58	CCOc1cc(/C=C2\SC(=S)NC2=O)cc(Cl)c1OC(=O)c1ccc(OC)cc1
 : . | 115 | . | .
59	CCOc1cc(C=C2C(=O)NC(=O)NC2=O)cc(Cl)c1OC(=O)c1ccc(OC)cc1
 : 50946 | 75* | 49* | 64
60	COC(=O)Cc1c(C)c2cc3c(c(C)c2oc1=O)OCN(CCc1ccc(OC)cc1)C3
 : . | 98 | -46 | .
61	CCc1c(C)c2cc3c(c(C)c2oc1=O)OCN(CCc1ccc(OC)c(OC)c1)C3
 : 14061* | 83* | -33 | 79
62	Cc1ccccc1-c1cc2n(C)c(C)c(CCC(=O)NC3CCCCC3)c(=O)n2n1
 : . | 110 | . | .
63	COc1cccc(C2=N/C(=C\c3ccccc3OC)C(=O)N2c2ccc(C)cc2Br)c1
 : . | 114 | . | .
64	COc1cccc(C2=N/C(=C\c3ccccc3OC)C(=O)N2c2ccc(C)cc2C)c1
 : 40847 | 73* | . | 68
65	COc1ccccc1NC(=O)CSc1nnc2c(n1)[nH]c1ccccc12
 : . | 106 | -45 | .

Bioassay records: PubChem BioAssay, ICCB-Longwood Screening Facility, Harvard Medical School
